The subject of the data set is cIAP2−/− and control mice. Kind of data set: Survival of mice after treatment with platelet-activating factor (PAF). Format: in vivo, mouse.

As for platelet-activating factor [PAF], the Survival (cIAP2+/+ mice, PAF 1 μg/kg i.v.) is given as 6/6; the Survival (cIAP2+/+ mice, PAF 2 μg/kg i.v.) is reported as 6/6; the Survival (cIAP2+/+ mice, PAF 2.5 μg/kg i.v.) is listed as 6/6; the Survival (cIAP2+/+ mice, PAF 3 μg/kg i.v.) is recorded as 0/6; the Survival (cIAP2+/+ mice, PAF 5 μg/kg i.v.) is on record as 0/6; the Survival (cIAP−/− mice, PAF 1 μg/kg i.v.) was 6/6. For the same substance, the Survival runs as follows: (cIAP−/− mice, PAF 2 μg/kg i.v.) 6/6; (cIAP−/− mice, PAF 2.5 μg/kg i.v.) 6/6; (cIAP−/− mice, PAF 3 μg/kg i.v.) 0/6; (cIAP−/− mice, PAF 5 μg/kg i.v.) 0/6.

These data come from patent US20060123501A1, “Method for treating inflammatory disorders” (priority 2004, published 2006).
